Earlier results, collected in US6444477B1, “Assay method for detecting 5-HT2B antagonists” (Pharmagene Laboratories Limited, priority 2000, dated 2002).
Like-named read-outs stand apart in the source and are kept apart here.

By UniProt entry, the sequences of proteins in these tests, tags left out. Residues count along the entry.
UniProt P28335, 33-458: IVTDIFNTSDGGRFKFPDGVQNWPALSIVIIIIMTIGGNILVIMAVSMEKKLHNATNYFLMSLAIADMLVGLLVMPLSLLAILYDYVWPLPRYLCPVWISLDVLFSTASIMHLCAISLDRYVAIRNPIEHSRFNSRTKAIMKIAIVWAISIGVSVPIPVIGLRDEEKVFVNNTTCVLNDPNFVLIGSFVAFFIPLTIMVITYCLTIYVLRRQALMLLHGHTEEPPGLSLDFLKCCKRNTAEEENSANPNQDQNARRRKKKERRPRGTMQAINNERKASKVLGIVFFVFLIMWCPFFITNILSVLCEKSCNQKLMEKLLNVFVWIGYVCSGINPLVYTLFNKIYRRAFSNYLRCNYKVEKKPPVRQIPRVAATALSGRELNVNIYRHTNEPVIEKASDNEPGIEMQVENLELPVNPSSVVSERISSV

Target: human 5-HT2C receptor (Homo sapiens, UniProt P28335)
Conditions: cited from earlier work

Row | Structure (SMILES) | affinity from binding data (#) at human 5-HT2C receptor | affinity from binding data (#) at human 5-HT2C receptor (marked #)
1 | COC(=O)[C@H]1[C@H]2C[C@H]3c4[nH]c5ccccc5c4CCN3C[C@H]2CC[C@@H]1O [Rauwolscine] | 5.8^# | 
2 | Cn1ccc2cc3c(cc21)CCN3C(=O)Nc1cccnc1 [SB 206553, 5-methyl-1-(3-pyridylcarbamoyl)-1,2,3,5-tetrahydropyrrolo [2,3-f]indole] |  | 7.9-9.0^#
